# Cyclic peptide permeability, from CycPeptMPDB

Values of Townsend et al. 2020, doi:10.26434/chemrxiv.13335941.v1, as listed in CycPeptMPDB.

PAMPA measures passive passage through an artificial lipid membrane.
Permeability is in 10^-6 cm/s, converted from the database's log10 values; higher is more permeable.

* CC(C)C[C@@H]1C(=O)N[C@@H](Cc2ccccc2)C(=O)N2CCC[C@H]2C(=O)N(C)[C@H](C)C(=O)N(C)[C@@H](CC(C)C)C(=O)N(C)[C@@H](CC(C)C)C(=O)N2CCC[C@H]2C(=O)N1C: PAMPA 3.9 × 10^-6 cm/s
* CC(C)C[C@@H]1C(=O)N[C@@H](Cc2ccccc2)CC(=O)N2CCC[C@H]2C(=O)N(C)[C@H](CC(C)C)C(=O)N[C@@H](Cc2ccccc2)C(=O)N2CCC[C@@H]2C(=O)N(C)[C@@H](C)C(=O)N1C: PAMPA 5.1 × 10^-6 cm/s
* CC(C)C[C@@H]1NC(=O)[C@@H](C)N(C)C(=O)[C@H]2CCCN2C(=O)[C@H](Cc2ccccc2)NC(=O)[C@@H](CC(C)C)N(C)C(=O)[C@@H]2CCCN2C(=O)[C@@H](CC(C)C)N(C)C1=O: PAMPA 7.6 × 10^-6 cm/s
* CC(C)C[C@H]1C(=O)N(C)[C@@H](CC(C)C)C(=O)N2CCC[C@H]2C(=O)N(C)[C@@H](CC(C)C)C(=O)N[C@@H](Cc2ccccc2)C(=O)N2CCC[C@H]2C(=O)N(C)[C@H](C)C(=O)N1C: PAMPA 4.6 × 10^-6 cm/s
* CC(C)C[C@H]1NC(=O)[C@H](C)NC(=O)[C@H](Cc2ccccc2)NC(=O)[C@H](CC(C)C)N(C)C(=O)[C@H]2CCCN2C(=O)[C@H](CC(C)C)N(C)C1=O: PAMPA 3.5 × 10^-6 cm/s
* CC(C)C[C@H]1NC(=O)[C@@H](C)NC(=O)[C@H]2CCCN2C(=O)[C@H](Cc2ccccc2)NC(=O)[C@H](CC(C)C)N(C)C(=O)[C@@H]2CCCN2C(=O)[C@H](CC(C)C)N(C)C1=O: PAMPA 1.7 × 10^-6 cm/s
* CC(C)C[C@@H]1NC(=O)[C@@H]2CCCN2C(=O)[C@H](CC(C)C)NC(=O)[C@@H](CC(C)C)N(C)C(=O)[C@@H](C)NC(=O)[C@H](Cc2ccccc2)NC1=O: PAMPA 1.3 × 10^-6 cm/s
* CC(C)C[C@H]1C(=O)N(Cc2ccccc2)CC(=O)N2CCC[C@H]2C(=O)N(C)[C@@H](CC(C)C)C(=O)N[C@@H](Cc2ccccc2)C(=O)N2CCC[C@@H]2C(=O)N[C@@H](Cc2ccccc2)CC(=O)N1C: PAMPA 3.7 × 10^-6 cm/s
* CC(C)C[C@@H]1NC(=O)[C@H]2CCCN2C(=O)[C@H](CC(C)C)NC(=O)[C@@H](CC(C)C)N(C)C(=O)[C@H](C)NC(=O)[C@H](Cc2ccccc2)NC1=O: PAMPA 2.5 × 10^-6 cm/s
* CC(C)C[C@@H]1NC(=O)[C@@H](CC(C)C)N(C)C(=O)[C@@H](C)N(C)C(=O)[C@H]2CCCN2C(=O)[C@H](Cc2ccccc2)NC(=O)[C@@H](CC(C)C)N(C)C(=O)[C@@H]2CCCN2C1=O: PAMPA 5.9 × 10^-6 cm/s
* CC(C)C[C@H]1NC(=O)[C@H]2CCCN2C(=O)[C@H](CC(C)C)N(C)C(=O)[C@@H](CC(C)C)NC(=O)[C@@H](C)N(C)C(=O)[C@@H]2CCCN2C(=O)[C@H](Cc2ccccc2)NC1=O: PAMPA 2.1 × 10^-6 cm/s
* CC(C)C[C@H]1NC(=O)[C@@H]2CCCN2C(=O)[C@H](CC(C)C)N(C)C(=O)[C@H](CC(C)C)N(C)C(=O)[C@@H](C)NC(=O)[C@@H]2CCCN2C(=O)[C@H](Cc2ccccc2)NC1=O: PAMPA 1.1 × 10^-6 cm/s
* CC(C)C[C@@H]1C(=O)N[C@H](CC(C)C)C(=O)N2CCC[C@H]2C(=O)N(C)[C@@H](CC(C)C)C(=O)N[C@@H](Cc2ccccc2)C(=O)N2CCC[C@H]2C(=O)N(C)[C@@H](C)C(=O)N1C: PAMPA 9.3 × 10^-6 cm/s
* CC(C)C[C@@H]1C(=O)N[C@@H](Cc2ccccc2)C(=O)N2CCC[C@H]2C(=O)N[C@@H](C)C(=O)N(C)[C@@H](CC(C)C)C(=O)N[C@H](CC(C)C)C(=O)N2CCC[C@@H]2C(=O)N1C: PAMPA 1.9 × 10^-6 cm/s
* CCCN1CC(=O)N[C@H](CC(C)C)C(=O)N[C@H](CC(C)C)C(=O)N2CCC[C@H]2C(=O)N[C@H](CC(C)C)C(=O)N[C@@H](Cc2ccccc2)C(=O)N2CCC[C@H]2C1=O: PAMPA 1.3 × 10^-6 cm/s
* CC(C)C[C@@H]1NC(=O)[C@@H](C)NC(=O)[C@H](Cc2ccccc2)NC(=O)[C@H](CC(C)C)N(C)C(=O)[C@@H]2CCCN2C(=O)[C@H](CC(C)C)N(C)C1=O: PAMPA 0.95 × 10^-6 cm/s
* CC(C)C[C@@H]1NC(=O)C[C@H](Cc2ccccc2)NC(=O)[C@H](Cc2ccccc2)NC(=O)[C@@H](CC(C)C)N(C)C(=O)[C@H]2CCCN2C(=O)[C@H](CC(C)C)N(C)C1=O: PAMPA 6.2 × 10^-6 cm/s
* CC(C)C[C@@H]1NC(=O)[C@H](CC(C)C)N(C)C(=O)[C@H](C)NC(=O)[C@@H]2CCCN2C(=O)[C@H](Cc2ccccc2)NC(=O)[C@H](CC(C)C)N(C)C(=O)[C@@H]2CCCN2C1=O: PAMPA 2.5 × 10^-6 cm/s
* CC(C)C[C@@H]1NC(=O)CN(Cc2ccccc2)C(=O)[C@@H](C)N(C)C(=O)[C@H]2CCCN2C(=O)[C@H](Cc2ccccc2)NC(=O)[C@H](CC(C)C)N(C)C(=O)[C@H]2CCCN2C1=O: PAMPA 1.9 × 10^-6 cm/s
* CC(C)C[C@@H]1NC(=O)[C@@H](C)N(C)C(=O)[C@H]2CCCN2C(=O)[C@H](Cc2ccccc2)NC(=O)CN(Cc2ccccc2)C(=O)[C@@H]2CCCN2C(=O)C[C@H](Cc2ccccc2)NC1=O: PAMPA 2.1 × 10^-6 cm/s
* CC(C)C[C@@H]1C(=O)N(Cc2ccccc2)CC(=O)N2CCC[C@@H]2C(=O)N(C)[C@@H](CC(C)C)C(=O)N[C@@H](Cc2ccccc2)C(=O)N[C@@H](Cc2ccccc2)CC(=O)N1C: PAMPA 1.5 × 10^-6 cm/s
* CCCN1CC(=O)N[C@@H](CC(C)C)C(=O)N[C@@H](CC(C)C)C(=O)N2CCC[C@@H]2C(=O)N(C)[C@H](CC(C)C)C(=O)N[C@@H](Cc2ccccc2)C(=O)N2CCC[C@@H]2C1=O: PAMPA 6.6 × 10^-6 cm/s
* CCCN1CC(=O)N[C@H](CC(C)C)C(=O)N(C)[C@H](CC(C)C)C(=O)N2CCC[C@@H]2C(=O)N(C)[C@@H](CC(C)C)C(=O)N[C@@H](Cc2ccccc2)C(=O)N2CCC[C@@H]2C1=O: PAMPA 7.8 × 10^-6 cm/s

The last 3 entries again:

* CC(C)C[C@@H]1C(=O)N(Cc2ccccc2)CC(=O)N2CCC[C@@H]2C(=O)N(C)[C@@H](CC(C)C)C(=O)N[C@@H](Cc2ccccc2)C(=O)N[C@@H](Cc2ccccc2)CC(=O)N1C: PAMPA 1.5 × 10^-6 cm/s
* CCCN1CC(=O)N[C@@H](CC(C)C)C(=O)N[C@@H](CC(C)C)C(=O)N2CCC[C@@H]2C(=O)N(C)[C@H](CC(C)C)C(=O)N[C@@H](Cc2ccccc2)C(=O)N2CCC[C@@H]2C1=O: PAMPA 6.6 × 10^-6 cm/s
* CCCN1CC(=O)N[C@H](CC(C)C)C(=O)N(C)[C@H](CC(C)C)C(=O)N2CCC[C@@H]2C(=O)N(C)[C@@H](CC(C)C)C(=O)N[C@@H](Cc2ccccc2)C(=O)N2CCC[C@@H]2C1=O: PAMPA 7.8 × 10^-6 cm/s

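Conditions beyond the assay type are not listed; see the original paper. Other peptides of the study may be missing here. Peptides that the database sets to -10, its floor, are left out.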